# Measurements: ChEMBL document CHEMBL3797125, “Discovery of GluN2A-Selective NMDA Receptor Positive Allosteric Modulators (PAMs): Tuning Deactivation Kinetics via Structure-Based Design” (J Med Chem, 2016)
# Protein sequences, listed by entry. Tags and fused reporters are not part of them. Lines headed by an entry give the natural chain unless they say otherwise; changes in a name come on top.
# UniProt Q12879, whole entry, looked up: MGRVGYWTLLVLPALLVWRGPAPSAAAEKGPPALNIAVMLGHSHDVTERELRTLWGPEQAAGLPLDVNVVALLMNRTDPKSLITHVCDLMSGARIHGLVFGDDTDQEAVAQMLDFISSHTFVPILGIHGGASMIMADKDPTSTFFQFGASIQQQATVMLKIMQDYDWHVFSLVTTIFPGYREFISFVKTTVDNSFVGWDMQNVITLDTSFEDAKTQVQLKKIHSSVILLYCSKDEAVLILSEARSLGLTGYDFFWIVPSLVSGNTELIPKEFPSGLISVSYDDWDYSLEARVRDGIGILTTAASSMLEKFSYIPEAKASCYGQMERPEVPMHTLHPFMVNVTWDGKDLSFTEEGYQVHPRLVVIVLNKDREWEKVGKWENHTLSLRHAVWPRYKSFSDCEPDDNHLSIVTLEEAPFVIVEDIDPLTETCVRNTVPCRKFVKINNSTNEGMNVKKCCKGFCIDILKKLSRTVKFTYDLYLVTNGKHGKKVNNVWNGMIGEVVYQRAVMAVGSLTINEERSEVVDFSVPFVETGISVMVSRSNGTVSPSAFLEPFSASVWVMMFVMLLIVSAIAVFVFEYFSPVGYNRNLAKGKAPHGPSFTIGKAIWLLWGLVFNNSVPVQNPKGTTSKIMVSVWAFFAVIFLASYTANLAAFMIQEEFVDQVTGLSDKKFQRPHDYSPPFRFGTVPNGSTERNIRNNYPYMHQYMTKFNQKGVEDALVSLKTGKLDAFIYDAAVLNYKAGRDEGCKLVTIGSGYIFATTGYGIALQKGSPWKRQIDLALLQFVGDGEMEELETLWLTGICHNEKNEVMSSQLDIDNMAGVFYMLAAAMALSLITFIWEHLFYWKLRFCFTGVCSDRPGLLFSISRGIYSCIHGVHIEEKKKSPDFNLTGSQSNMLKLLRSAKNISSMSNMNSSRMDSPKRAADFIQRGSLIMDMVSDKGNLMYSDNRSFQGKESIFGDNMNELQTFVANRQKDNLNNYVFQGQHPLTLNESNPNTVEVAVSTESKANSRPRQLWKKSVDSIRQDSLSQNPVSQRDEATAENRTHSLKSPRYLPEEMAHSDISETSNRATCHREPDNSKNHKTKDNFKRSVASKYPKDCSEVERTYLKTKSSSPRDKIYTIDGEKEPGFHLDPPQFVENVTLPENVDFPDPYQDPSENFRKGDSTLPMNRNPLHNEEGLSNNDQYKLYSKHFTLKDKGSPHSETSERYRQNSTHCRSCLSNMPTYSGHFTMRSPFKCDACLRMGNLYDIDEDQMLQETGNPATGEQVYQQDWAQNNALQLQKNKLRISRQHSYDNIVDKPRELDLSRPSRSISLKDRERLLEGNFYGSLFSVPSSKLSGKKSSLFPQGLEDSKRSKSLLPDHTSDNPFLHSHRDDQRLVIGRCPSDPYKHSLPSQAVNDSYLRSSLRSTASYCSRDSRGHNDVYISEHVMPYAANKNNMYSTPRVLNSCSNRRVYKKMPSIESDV
# UniProt Q14957: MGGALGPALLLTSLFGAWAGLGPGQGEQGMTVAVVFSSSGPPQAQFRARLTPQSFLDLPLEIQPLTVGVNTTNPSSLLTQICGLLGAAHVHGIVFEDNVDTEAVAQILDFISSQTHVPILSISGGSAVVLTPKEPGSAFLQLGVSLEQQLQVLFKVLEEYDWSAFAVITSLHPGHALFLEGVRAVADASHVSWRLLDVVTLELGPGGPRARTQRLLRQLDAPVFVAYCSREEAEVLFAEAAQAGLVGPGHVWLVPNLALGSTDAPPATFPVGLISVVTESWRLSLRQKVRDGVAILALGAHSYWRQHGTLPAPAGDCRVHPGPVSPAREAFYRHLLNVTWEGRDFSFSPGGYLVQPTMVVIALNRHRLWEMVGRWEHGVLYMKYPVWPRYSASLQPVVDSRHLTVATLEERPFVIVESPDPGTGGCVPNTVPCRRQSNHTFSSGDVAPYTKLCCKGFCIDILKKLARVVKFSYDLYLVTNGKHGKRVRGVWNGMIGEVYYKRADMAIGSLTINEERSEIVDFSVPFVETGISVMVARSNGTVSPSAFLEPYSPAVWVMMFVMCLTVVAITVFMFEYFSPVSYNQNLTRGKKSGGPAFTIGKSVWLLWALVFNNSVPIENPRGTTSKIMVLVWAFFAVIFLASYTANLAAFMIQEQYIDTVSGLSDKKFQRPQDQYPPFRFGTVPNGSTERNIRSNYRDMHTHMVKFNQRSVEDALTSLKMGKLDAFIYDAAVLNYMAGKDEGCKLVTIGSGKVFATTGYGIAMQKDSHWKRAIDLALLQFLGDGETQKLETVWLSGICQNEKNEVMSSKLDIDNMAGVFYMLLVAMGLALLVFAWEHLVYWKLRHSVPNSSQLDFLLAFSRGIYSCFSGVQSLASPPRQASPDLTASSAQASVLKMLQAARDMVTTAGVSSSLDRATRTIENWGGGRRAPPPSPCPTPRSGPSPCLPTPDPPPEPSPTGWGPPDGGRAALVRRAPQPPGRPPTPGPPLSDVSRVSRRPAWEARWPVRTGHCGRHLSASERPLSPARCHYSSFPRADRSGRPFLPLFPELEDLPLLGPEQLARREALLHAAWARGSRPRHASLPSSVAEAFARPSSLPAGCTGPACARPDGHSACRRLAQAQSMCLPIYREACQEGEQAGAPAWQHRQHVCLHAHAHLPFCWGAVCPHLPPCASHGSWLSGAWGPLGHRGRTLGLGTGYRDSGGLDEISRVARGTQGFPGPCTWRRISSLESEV
# UniProt O15399, whole entry, looked up: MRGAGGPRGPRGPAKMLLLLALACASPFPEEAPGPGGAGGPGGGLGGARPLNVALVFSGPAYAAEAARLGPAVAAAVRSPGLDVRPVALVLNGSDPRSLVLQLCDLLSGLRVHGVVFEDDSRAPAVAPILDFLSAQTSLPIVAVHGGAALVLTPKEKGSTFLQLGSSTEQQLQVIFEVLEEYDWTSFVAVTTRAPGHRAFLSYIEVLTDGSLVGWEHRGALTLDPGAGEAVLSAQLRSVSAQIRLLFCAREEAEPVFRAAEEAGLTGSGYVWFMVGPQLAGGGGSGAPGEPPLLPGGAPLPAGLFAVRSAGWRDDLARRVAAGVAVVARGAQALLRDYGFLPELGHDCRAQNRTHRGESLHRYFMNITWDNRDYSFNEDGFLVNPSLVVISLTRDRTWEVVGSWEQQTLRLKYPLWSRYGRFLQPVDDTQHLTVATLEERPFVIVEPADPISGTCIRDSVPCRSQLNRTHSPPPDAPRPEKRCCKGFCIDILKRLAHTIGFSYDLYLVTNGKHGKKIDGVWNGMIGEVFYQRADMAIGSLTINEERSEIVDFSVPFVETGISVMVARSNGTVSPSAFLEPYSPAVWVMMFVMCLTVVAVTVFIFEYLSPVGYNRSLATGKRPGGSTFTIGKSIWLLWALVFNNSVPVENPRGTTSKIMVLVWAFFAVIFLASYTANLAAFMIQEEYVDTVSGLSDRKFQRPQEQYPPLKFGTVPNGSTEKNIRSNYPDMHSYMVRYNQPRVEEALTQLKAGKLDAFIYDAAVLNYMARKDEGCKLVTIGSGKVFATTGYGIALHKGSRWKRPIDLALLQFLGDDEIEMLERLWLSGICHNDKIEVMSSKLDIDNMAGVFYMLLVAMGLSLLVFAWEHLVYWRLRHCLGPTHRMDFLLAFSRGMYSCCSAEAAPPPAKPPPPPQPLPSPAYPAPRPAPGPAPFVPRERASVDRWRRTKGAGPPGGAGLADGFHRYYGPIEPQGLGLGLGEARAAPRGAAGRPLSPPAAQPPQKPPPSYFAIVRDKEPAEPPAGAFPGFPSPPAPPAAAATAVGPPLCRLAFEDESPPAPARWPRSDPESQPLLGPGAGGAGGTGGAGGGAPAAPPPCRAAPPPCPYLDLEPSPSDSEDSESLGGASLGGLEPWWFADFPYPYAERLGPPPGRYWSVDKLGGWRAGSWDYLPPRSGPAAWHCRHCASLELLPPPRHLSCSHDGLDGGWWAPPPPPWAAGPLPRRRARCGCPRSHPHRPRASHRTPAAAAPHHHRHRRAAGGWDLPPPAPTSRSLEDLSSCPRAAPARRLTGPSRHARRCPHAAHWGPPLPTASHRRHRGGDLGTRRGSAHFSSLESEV
# Calls of active or inactive are those of the source. The rule behind the calls is not given here.
# Key:
# Assay type in all cases: cell-based
# [1] = molecular target: Glutamate NMDA receptor; GRIN1/GRIN2A (Homo sapiens, UniProt Q05586+Q12879); assay: Positive allosteric modulation of GluN1/GluN2A NMDAR (unknown origin) expressed in CHO cells assessed as slowing of deactivation kinetics at 30 to 1000 nM by whole-cell voltage clamp electrophysiological analysis
# [2] = molecular target: Ionotropic glutamate receptor NMDA 1/2C (Homo sapiens, UniProt Q05586+Q14957); assay: Positive allosteric modulation of GluN1/GluN2C NMDAR (unknown origin) expressed in Dox-inducible cells at 125 uM by BD calcium indicator dye based-fluorescence analysis in presence of glutamate/glycine
# [3] = molecular target: Ionotropic glutamate receptor NMDA 1/2D (Homo sapiens) (UniProt Q05586+O15399); assay: Positive allosteric modulation of GluN1/GluN2D NMDAR (unknown origin) expressed in Dox-inducible cells at 125 uM by BD calcium indicator dye based-fluorescence analysis in presence of glutamate/glycine
compound,measurement,setting,value
N#C[C@@H]1C[C@H]1c1c(C(F)(F)F)sc2nc(Cn3nc(C(F)(F)F)cc3Cl)cc(=O)n12,Activity,[1],Active
same,%max,[2],233%
same,%max,[3],160%
